Assay results as given in patent US20160176924A1, “MODIFIED PEPTIDES AS POTENT INHIBITORS OF THE PSD-95/NMDA RECEPTOR INTERACTION” (priority 2008, published 2016).

Assays:
[1] = Human blood plasma stability assay; format: in vitro ADME; conditions: Blood plasma half life (T1/2)
Protocol: In this assay, the half-life (T1/2) of a compound in blood plasma is measured in vitro, whereby its susceptibility to degradation by proteases, peptidases and general plasma contents is quantified.
Compounds of interest were dissolved in human blood plasma (270 μl; 3H Biomedical, Sweden, cat no 1300-1-P50) to a concentration of 0.25 mM (30 μL of 2.5 mM) and incubated at 37° C. Aliquots (30 μl) were removed at various time intervals (0, 5, 10, 20, 40, 80, 160, 320, 960, 1280, 2550, 4560 and 7240 min) and quenched with 60 μL trichloroacetic acid (aq., 5%). The aliquots were vortexed, and incubated for at least 15 min, at 4° C. prior to centrifugation at 18,000 g for 2 min and the supernatant was analyzed by RP-HPLC to quantify the remaining compound (absorbance at 218 nm).

PDZ2 of PSD-95 [2] = biological target: T1, PDZ2 of PSD-95 (Homo sapiens, UniProt P78352); assay: FP heterologous competition binding assay; conditions: for Ki: FP competition, mean ± SEM, NA = no activity/affinity
T1 construct: PDZ2 (residues 155-249); made in house; host or cells: E. coli BL21-DE3 pLysS
From the text: (§1) Determined IC50 values may be converted to Ki values.^5 Suitable fluorophores include either 5-FAM or Cy5, which may be coupled to a tripeptide (KSG or CSG) linker attached to the N-terminus of the undecapeptide, to give 5-FAM-NR2B, Cy5-NR2B, 5-FAM-CRIPT and Cy5-CRIPT. The 5-FAM fluorophore may be attached to the undecapeptides by coupling with HATU. The Cy5 fluorophore may be conjugated to the undecapeptides by coupling Cy5-maleimide to the cysteine side chain of the tripeptide sequence CSG attached to the N-terminus of the peptide, as detailed in the Methodology section.
(§2) To measure the affinities between non-fluorescent peptides and PDZ domains, heterologous competition bindings assay were performed. This was done by adding increasing concentrations of peptide to a fixed concentration of Cy5-NR2B, 5-FAM-NR2B, Cy5-CRIPT or 5-FAM-CRIPT (50 nM) and PDZ (20 μM for PDZ1, 3 μM for PDZ2 and 1-2 and 5 μM for PDZ3) in the same TBS buffer and conditions as described above. FP values were then fitted to the general equation: Y=Bottom+(Top−Bottom)/[1[…](10̂^X-logIC50)], where X is the logarithmic value of peptide concentration. Hereby the IC50 value was obtained, which is used to calculate the theoretical competitive inhibition constant, Ki.^5
(§3) A convenient and reliable way to examine interactions between peptide analogues and PDZ domains is by using a fluorescence polarization (FP) assay. The three PDZ domains, PDZ1-3, of PSD-95 were expressed individually as set out above, while PDZ1-2 was also expressed as a tandem construct. […] IC50 values were then converted to Ki values.^5

PDZ1-2 tandem of PSD-95 = biological target: T2, PDZ1-2 tandem of PSD-95 (Homo sapiens, UniProt P78352); assay: FP heterologous competition binding assay; conditions: mean ± SEM
T2 construct: PDZ1-2 (residues 61-249) tandem; made in house; host or cells: E. coli BL21-DE3 pLysS
From the text: as §1, §2, §3

PDZ1-2 of PSD-95 = biological target: T3, PDZ1-2 of PSD-95 (Homo sapiens, UniProt P78352); assay: Isothermal titration calorimetry (ITC); format: binding; conditions: 25° C., PBS pH 7.4; mean ± SEM; read-out: ITC Kd PDZ12
T3 construct: PDZ1-2 (residues 61-249) tandem; made in house; host or cells: E. coli BL21-DE3 pLysS
From the text: (§4) This technique (Pierce, M. et al., 1999., Methods, p. 213-221) provides an exact determination of the affinity of a ligand for its target protein, as well as measuring the thermodynamic properties of the interaction, including enthalpy (ΔH), entropy (ΔS) and free energy (ΔG) together with the stoichiometric relationship of ligand binding. In this method, un-labeled ligand is titrated into a solution of un-labeled PDZ protein located in the calorimeter. Heat generated upon protein recognition is measured (ΔH) during the titration of the ligand and the PDZ protein until saturation is achieved, and the heat-exchange upon further ligand addition is negligible. Based on the amount of ligand needed to achieve saturation an affinity constant (Kd) is calculated and in addition ΔH, ΔS, ΔG and stoichiometry are determined.
(§5) Calorimetry experiments were performed on a microcalorimeter (Microcal, MA, USA). The ligands were titrated directly into the PDZ solution. […] The concentration of peptide and PDZ in solution was quantified by amino acid analysis. […] The analysed solution was stirred at 1000 rpm, with a reference power of 6 μcal/s. Heats of dilution were initially determined by titrating the ligand into buffer and subtracting these baseline values from the observed “heat values”. […]

PDZ1 of PSD-95 = biological target: T4, PDZ1 of PSD-95 (Homo sapiens, UniProt P78352); assay: FP heterologous competition binding assay
T4 construct: PSD-95 PDZ1 (residues 61-151); made in house; host or cells: E. coli BL21-DE3 pLysS
From the text: as §1, §2, §3

PDZ2 of PSD-95 [3] = biological target: T1, PDZ2 of PSD-95; assay: Isothermal titration calorimetry (ITC); format: binding; conditions: 25° C., PBS pH 7.4; mean ± SEM
From the text: as §4, §5

With `CC[C@H](C)[C@H](N)C(=O)N[C@@H](C)C(=O)N[C@H](C(=O)N[C@@H](C)C(=O)N[C@H](C(=O)O)C(C)C)[C@@H](C)O` [IATAV (86), IATAV] the half-life at […] [1] was 17 to 55 min, the Ki (PDZ2 of PSD-95 [2]) was 16000 ± 330 nM and the Ki (PDZ1-2 tandem of PSD-95) was 18000 ± 470 nM.
`CC[C@H](C)[C@H](N)C(=O)N[C@@H](CCC(=O)O)C(=O)N[C@H](C(=O)N[C@@H](C)C(=O)N[C@H](C(=O)O)C(C)C)[C@@H](C)O` [IETAV (82), IETAV] gave a Ki (PDZ2 of PSD-95 [2]) of 1700 ± 200 nM, a Ki (PDZ1-2 tandem of PSD-95) of 2500 ± 130 nM and a Kd (PDZ1-2 of PSD-95) of 1900 ± 110 nM.
For `CC[C@H](C)[C@H](N)C(=O)N[C@@H](CCC(=O)O)C(=O)N[C@@H](CO)C(=O)N[C@@H](CC(=O)O)C(=O)N[C@H](C(=O)O)C(C)C` [IESDV (7), IESDV], the “affinity to PDZ2, in words” value (PDZ2 of PSD-95 [2]; FP assay) was “without losing affinity”, the Ki (PDZ2 of PSD-95 [2]) was 3100 ± 150 nM and the “affinity to PDZ1, in words” value (PDZ1 of PSD-95) was “without losing affinity”. For the same molecule, the Kd (PDZ2 of PSD-95 [3]) was 2600 ± 190 nM.
